According to publication PMC8038090, “Xanthine Oxidase Inhibitors from Filipendula ulmaria (L.) Maxim. and Their Efficient Detections by HPTLC and HPLC Analyses” (Molecules, 2021):
Like-named read-outs stand apart in the source and are kept apart here.

Amino acid sequences for entries named in this document (tags omitted). Residues count along the entry.
UniProt P80457, 2-1332 limits assumed: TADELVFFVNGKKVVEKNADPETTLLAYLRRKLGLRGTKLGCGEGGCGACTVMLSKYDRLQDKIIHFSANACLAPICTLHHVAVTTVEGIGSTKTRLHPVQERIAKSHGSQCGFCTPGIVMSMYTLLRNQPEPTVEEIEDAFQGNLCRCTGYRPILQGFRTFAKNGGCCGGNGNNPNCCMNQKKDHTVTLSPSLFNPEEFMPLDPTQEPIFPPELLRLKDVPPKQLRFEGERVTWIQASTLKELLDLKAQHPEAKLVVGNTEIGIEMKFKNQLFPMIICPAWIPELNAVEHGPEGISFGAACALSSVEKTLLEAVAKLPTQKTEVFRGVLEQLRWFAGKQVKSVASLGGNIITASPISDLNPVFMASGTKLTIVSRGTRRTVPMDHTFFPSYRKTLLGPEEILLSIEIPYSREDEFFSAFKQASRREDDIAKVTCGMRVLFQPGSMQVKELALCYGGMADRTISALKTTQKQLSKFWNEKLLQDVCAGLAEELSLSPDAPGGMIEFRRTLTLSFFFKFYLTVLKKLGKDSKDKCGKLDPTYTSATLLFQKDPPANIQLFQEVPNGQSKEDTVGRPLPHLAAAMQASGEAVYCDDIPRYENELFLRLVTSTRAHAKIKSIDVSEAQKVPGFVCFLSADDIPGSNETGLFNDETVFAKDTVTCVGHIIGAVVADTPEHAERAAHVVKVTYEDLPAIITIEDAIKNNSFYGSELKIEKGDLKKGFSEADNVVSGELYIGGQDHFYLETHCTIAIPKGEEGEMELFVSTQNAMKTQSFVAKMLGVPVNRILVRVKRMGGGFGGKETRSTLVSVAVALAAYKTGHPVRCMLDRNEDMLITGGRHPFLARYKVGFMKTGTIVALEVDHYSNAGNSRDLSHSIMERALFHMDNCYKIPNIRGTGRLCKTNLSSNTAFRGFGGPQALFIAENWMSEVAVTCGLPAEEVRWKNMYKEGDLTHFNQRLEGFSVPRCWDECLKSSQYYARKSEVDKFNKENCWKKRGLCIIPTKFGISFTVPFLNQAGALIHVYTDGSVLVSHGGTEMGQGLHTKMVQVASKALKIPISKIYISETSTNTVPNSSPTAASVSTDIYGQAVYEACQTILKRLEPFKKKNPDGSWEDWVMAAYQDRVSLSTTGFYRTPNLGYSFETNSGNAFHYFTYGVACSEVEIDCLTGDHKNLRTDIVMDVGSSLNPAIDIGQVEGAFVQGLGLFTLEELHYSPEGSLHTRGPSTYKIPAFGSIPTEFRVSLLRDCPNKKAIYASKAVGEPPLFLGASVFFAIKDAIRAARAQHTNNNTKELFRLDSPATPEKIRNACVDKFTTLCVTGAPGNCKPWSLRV

Molecular target: xanthine oxidase (XO) (Bos taurus, UniProt P80457)
Test: Xanthine oxidase inhibitory activity by UV spectroscopy (uric acid formation at 293 nm)
Type: biochemical
Conditions: xanthine 56 µM, XO 0.01 U/mL, 25 °C
Experimental: Inhibition of XO was conducted according to the procedure described by Sowndhararajan et al., with slight modifications. […] Prior to the addition of XO solution in the mixture, all the components were incubated at 25 °C in the dark for 5 min. […] The enzymatic activity assay without extract was defined as maximum relative activity, and the percentage of inhibition was calculated according to the method of Yan et al. IC50 values were determined using linear regression and are expressed in µg/mL of plant extract ± standard deviation. All measurements were performed in triplicate (n = 3).

For O=c1c(O)c(-c2ccc(O)cc2)oc2cc(O)cc(O)c12 [Kaempferol], the IC50 (n = 3, read-out: IC50 (µM), XO inhibition) was 12.9 ± 0.6 µM and the IC50 (n = 3, read-out: IC50 (µg/mL), XO inhibition (converted)) was 12.9 µM.
